The values below are quoted from earlier work in US20120149888A1, “SYNTHESIS OF ARA-2'-O-METHYL-NUCLEOSIDES, CORRESPONDING PHOSPHORAMIDITES AND OLIGONUCLEOTIDES INCORPORATING NOVEL MODIFICATIONS FOR BIOLOGICAL APPLICATION IN THERAPEUCTICS, DIAGNOSTICS, G- TETRAD FORMING OLIGONUCLEOTIDES AND APTAMERS” (priority 2009, published 2012).

The conditions of the data set: polarographically, aprotic conditions, in the presence of alpha-lipoic acid.

On to 2,T-anhydrouridine, for which the “index of potential carcinogenicity tg alpha” value is reported as 0.260.
